Consider 13 molecules from article PMC6728138, “Quantitative mapping of protein-peptide affinity landscapes using spectrally encoded beads” (eLife, 2019).

Read-outs that look alike come from different tables or passages of the source.

The subject of assay [1] is NFAT-driven luciferase activity in HEK293T cells. As to the kind of experiment: In vivo calcineurin activity assay (NFAT dual luciferase reporter). The format is cell-based. From the text:
The ultimate goal of mapping CN-SLiM binding energy landscapes is to improve understanding of CN target substrate recognition and enable rational design of in vivo inhibitors. To test the degree to which in vitro MRBLE-pep affinities predict in vivo inhibition, we used a previously developed dual luciferase reporter assay to assess the activity of the NFAT2 transcription factor in HEK293T cells (Figure 6A) ([Grigoriu et al., 2013]). NFAT2 must be dephosphorylated by CN to accumulate in the nucleus, where it activates transcription of its target genes, and this interaction can be inhibited by peptides or small molecules that binds to CN. Reduction of NFAT2-dependent transcriptional activity upon expression of a competing PxIxIT peptide therefore reflects, quantitatively, the affinity of the inhibitor peptide for CN. Candidate PxIxIT inhibitors were co-expressed as GFP-fusion proteins within cells to enhance their stability and facilitate direct measurement of inhibitor concentrations.
PxIxIT peptides were fused to eGFP in pEGFPc1 vector. HEK293T cells were transfected with pEGFPc1 clones, pNFAT-Luc and CMV-Renilla in a 6-well plate format. 18 hr post transfection, 1μM FK506 or DMSO (vehicle) was added to the media as needed. 36 hr post transfection, cells were treated with 1 mM Ionomycin and 1 mM phorbol 12,13 di-butyrate to activate calcineurin and AP-1 (via PKC) respectively. 6 hr after pathway activation, cells were collected, washed in PBS and re-suspended in DMEM media. 80% of the cells were used to measure luciferase activity and renilla using the Dual-Glo assay system (Promega) with three technical replicates. The remaining cells were frozen and stored at −80°C. Cell lysates were prepared in RIPA buffer. 15–20 μg of lysate was analyzed by Western for expression of GFP. GFP signal was normalized to either actin or tubulin. Luciferase activity (normalized to renilla expression) was further normalized to eGFP expression. Data represent at least three experimental replicates.
On the technique in general: Reporter assays use an easily measured gene product as a stand-in for the process of interest.

The target in another assay is T1, calcineurin (CN) (Homo sapiens, UniProt Q08209).
T1 construct: human calcineurin A isoforms (truncated at residue 400); made in house; host or cells: E. coli BL21 (DE3)
Description: MRBLE-pep calcineurin binding assay (concentration-dependent). As for the experimental part:
MRBLEs were prepared by transferring a 20 μL aliquot from a 600 μL suspension (∼3000–8000 beads depending on pellet size) to a 100 μL PCR strip (20 μL for each CN concentration), exchanging buffer via 3 cycles of iterative pelleting, decanting, and resuspension with 0.1% PBST containing 5% BSA, pH = 7.5 (100 μL), and then left mixing at ∼5 °C on a rotator in the same wash buffer overnight (∼14 hr). MRBLEs were then buffer exchanged once again with CN binding buffer (50 mM Tris pH = 7.5, 150 mM NaCl, 0.1% TWEEN 20) via three iterative cycles of pelleting, decanting, and resuspension.
After incubation, MRBLEs were pelleted, decanted, and washed once with 0.1% PBST (100 μL). After a final round of pelleting and decanting, 20 μL of 0.1% PBST was added and the beads were transferred to a quartz microscope slide for imaging.
The affinity ( Kd ) for each peptide in a MBRLE library was determined via a two-step nonlinear regression using a single-site binding model:(1) Ii=(Imax[CNtotal])/(Kd,i+[CNtotal]) where Ii is the median measured fluorescence intensity for each peptide, Kd,i is the dissociation constant for that interaction, [ CNtotal ] is total CN concentration, and Imax is a global variable representing the fluorescence intensity once MRBLE-pep beads are saturated. First, we determined the global saturation value ( Imax ), by globally fitting the top 80% highest-intensity MRBLE codes. Next, we globally fit the entire data set using this Imax value to yield an estimated absolute affinity ( Kd ) for all peptides in the library. […] Differences in binding affinity were calculated relative to a reference peptide using the standard equation:(2) ΔΔG=RTln(Kd,i/Kd,ref)
Next, we used this reference value and calculated differences in binding affinity ( ΔΔG ) to estimate absolute Kd values for each peptide within the calibration and full calibration libraries (Figure 2—source data 1, Figure 2—source data 2, Figure 5—source data 1, Figure 5—source data 2, Figure 5—source data 3, Figure 5—source data 4).

Setting [2] is: all other peptides in vivo experiment, replicate 1.
[3] abbreviates: all other peptides in vivo experiment, replicate 2.
[4] abbreviates: all other peptides in vivo experiment, replicate 3.
The mark [5] stands for this setting: initial in vivo experiment, replicate 1, FK506 1 μM.
[6] abbreviates: initial in vivo experiment, replicate 2, FK506 1 μM.
[7] abbreviates: initial in vivo experiment, replicate 3, FK506 1 μM.
[8] abbreviates: PKIVIT in vivo experiment, replicate 1.
Where [9] appears, read: PKIVIT in vivo experiment, replicate 2.
Setting [10] is: PKIVIT in vivo experiment, replicate 3.
Where [11] appears, read: PKIVIT in vivo experiment, replicate 4.

“PRIEIT [PRIEIT (NFAT), NFATc2 PxIxIT peptide fused to eGFP]”: the “NFAT-driven luciferase activity, normalized, relative to empty vector (Data)” value in assay [1] (setting [2]) was 0.417; in assay [1] (setting [3]), 0.3945; in assay [1] (setting [4]) it was 0.5589; in assay [1] (setting [6]), 0.3665; in assay [1] (setting [7]), 0.5522. Besides, the “NFAT-driven luciferase activity, normalized to renilla and eGFP expression, relative to empty vector (Data)” value in assay [1] (setting [5]) is listed as 0.5207.

Turning to LPRIEIT [NFATc2-eGFP variant], the figures for the “NFAT-driven luciferase activity, normalized, relative to empty vector (Data)” value in assay [1] (setting [2]), in assay [1] (setting [3]) and in assay [1] (setting [4]) were 0.2238, 0.1533 and 0.1829, respectively.

Consider “PKIIIT [PKIIIT site of A238L as eGFP fusion]”, for which the “NFAT-driven luciferase activity, normalized, relative to empty vector (Data)” value was 0.0342 in assay [1] (setting [8]), 0.04743 in assay [1] (setting [9]), 0.08183 in assay [1] (setting [10]) and 0.07617 in assay [1] (setting [11]).

For PKIVITgpD [PKIVIT-eGFP variant, H9D], the “NFAT-driven luciferase activity, normalized, relative to empty vector (Data)” value in assay [1] (setting [8]) was 0.03298; in assay [1] (setting [9]), 0.04736; in assay [1] (setting [10]) it was 0.03611; in assay [1] (setting [11]) it was 0.02196.

The term Kd denotes the equilibrium constant for the complex coming apart. Turning to `CC[C@H](C)[C@H](NC(=O)[C@@H](NC(=O)[C@@H]1CCCN1C(=O)[C@@H](N)Cc1c[nH]cn1)C(C)C)C(=O)N[C@@H](C)C(=O)N[C@H](C(=O)N[C@H](C(=O)NCC(=O)N1CCC[C@H]1C(=O)N[C@@H](Cc1c[nH]cn1)C(N)=O)[C@@H](C)O)C(C)C`, the Kd at calcineurin (CN) (kd, 'Triplicate high' library) stood at 237 ± 70.6 µM.

In the case of “PKIVIT [PKIVIT PxIxIT peptide fused to eGFP, expressed in HEK293T cells]”, the “NFAT-driven luciferase activity, normalized, relative to empty vector (Data)” value is 0.06969 in assay [1] (setting [8]); 0.05279 in assay [1] (setting [9]); 0.05005 in assay [1] (setting [10]); 0.05009 in assay [1] (setting [11]); 0.08838 in assay [1] (setting [6]); 0.06784 in assay [1] (setting [7]). Besides, the “NFAT-driven luciferase activity, normalized to renilla and eGFP expression, relative to empty vector (Data)” value in assay [1] (setting [5]) amounted to 0.05964.

Regarding DPRIEIT [NFATc2-eGFP variant], the entries for the “NFAT-driven luciferase activity, normalized, relative to empty vector (Data)” value in assay [1] (setting [2]), in assay [1] (setting [3]) and in assay [1] (setting [4]) were 0.5253, 0.5299 and 0.6622, respectively.

With IPKIVIT [PKIVIT-eGFP variant], the “NFAT-driven luciferase activity, normalized, relative to empty vector (Data)” value in assay [1] (setting [8]) was 0.04086; in assay [1] (setting [9]) it was 0.05199; in assay [1] (setting [10]), 0.03422; in assay [1] (setting [11]) it was 0.02605.

Regarding EPKIVIT [PKIVIT-eGFP variant], the “NFAT-driven luciferase activity, normalized, relative to empty vector (Data)” value in assay [1] (setting [8]) is recorded as 0.3361; in assay [1] (setting [9]), 0.4725; in assay [1] (setting [10]) it was 0.2064; in assay [1] (setting [11]) it was 0.1312.

As to `CC[C@H](C)[C@H](NC(=O)[C@@H](NC(=O)[C@@H]1CCCN1C(=O)[C@H](Cc1c[nH]cn1)NC(=O)[C@@H]1CCCN1C(=O)CNC(=O)[C@H](C)N)C(C)C)C(=O)N[C@H](C(=O)N[C@H](C(=O)N[C@H](C(=O)NCC(=O)N1CCC[C@H]1C(=O)N[C@@H](Cc1c[nH]cn1)C(=O)N[C@@H](CCC(=O)O)C(=O)N[C@@H](CCC(=O)O)C(N)=O)[C@@H](C)O)[C@@H](C)CC)C(C)C`, the Kd at calcineurin (CN) amounted to 0.98 µM.

On to “IAIIIT [IAIIIT (AKAP), AKAP79 PxIxIT peptide fused to eGFP]”, for which the “NFAT-driven luciferase activity, normalized, relative to empty vector (Data)” value in assay [1] (setting [2]) amounted to 0.4425; in assay [1] (setting [3]) it was 0.4249; in assay [1] (setting [4]) it was 0.3809; in assay [1] (setting [6]), 0.4594; in assay [1] (setting [7]), 0.4215. In assay [1] (setting [5]), the “NFAT-driven luciferase activity, normalized to renilla and eGFP expression, relative to empty vector (Data)” value was 0.4418.

Consider PRIHIT [NFATc2-eGFP variant], for which the “NFAT-driven luciferase activity, normalized, relative to empty vector (Data)” value in assay [1] (setting [2]) was found to be 0.9608; in assay [1] (setting [3]) it was 0.763; in assay [1] (setting [4]), 0.8824.

With PVIVITgpD [PVIVIT-eGFP variant, H9D], the “NFAT-driven luciferase activity, normalized, relative to empty vector (Data)” value in assay [1] (setting [2]) was 0.05157; in assay [1] (setting [3]) it was 0.05511; in assay [1] (setting [4]), 0.05137.
